From patent US12633374B2, “Method for determining efficacy of chemotherapy treatment for a subject” (RNA Diagnostics Inc., priority 2012, dated 2026)

Tested on: tumour sample
Experiment: Maximal RDI score in tumour biopsies of patients on neo-adjuvant Trastuzumab
Type: in vivo, human
Details: after the first cycle, FIG. 17A and 17B
Method: Biopsy samples before and after a treatment dose were obtained from patients undergoing neo-adjuvant therapy with Trastuzumab. RNA was isolated and analyzed using the Agilent Bioanalyzer. Electropherograms were analyzed using the methods 100 and 400 and the maximal RDI score was graphed for each tumour sample at each time-point.

Q: Which RDI values does the source give for Trastuzumab here?
A: increased in some patients
